# uPA surface inh – cell surface uPA generation inhibition | Potency, µM (series often up to 38.3 µM), for inactives: at the highest dose activity change, negative = inhibition, most hits filed as inhibitors | hit rate 0.31% among 330,000 | cell surface uPA generation assay, qHTS; active = well fitted inhibition curve with a large enough effect; inconclusive = small, poorly fitted or top-dose-only effect; inactive = no such curve, though single readings can be large or run the other way; tested in mouse RAW 264.7 cells; also: potency is read from the fitted curve at half-maximal effect; % is scaled to controls: 0 for no effect and ±100 for the full control effect; nearly all actives have a fitted effect of over 55% in size
# DT40 TDP1 no CPT – qHTS for Inhibitors of human tyrosyl-DNA phosphodiesterase 1 (TDP1): qHTS in cells in absence of CPT; DT40 Tdp1-/- hTDP1 cells, no CPT, ATP luminescence, 48 h; Potency, µM (top dose mostly 46.2 µM), without a hit: at the highest dose activity change, negative = growth inhibition, hits mostly inhibitors; hit rate 15% among 420,000; AID 686978, 2013; also: potency is read from the fitted curve at half-maximal effect; % is scaled to controls: 0 for no effect and ±100 for the full control effect; nearly all actives have a fitted effect of over 55% in size
#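 Luminescent ATP content (CellTiter-Glo) served as the growth readout. Knockout chicken DT40 cells expressing human TDP1 were exposed to compounds without camptothecin for a minimum 48 hr at 37 °C.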
# miR-21 reporter – miR-21 reporter, rising signal; HeLa miR-21 FLuc reporter, luciferase, 48 h; Potency, µM (highest dose often 38.3 µM), for the others: top-dose reporter change, positive = more light; 340,000 tested, under 10 active; AID 2288; active = well fitted rising curve with a large enough effect; inconclusive = small, poorly fitted or top-dose-only effect; inactive = no such curve, though single readings can be large or run the other way;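 further: % of control where 0% means no effect; miR-21 action dims this reporter so a rising signal means less miR-21 action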
#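 HeLa cells stably expressing CMV-driven firefly luciferase with a downstream miR-21 binding sequence, endogenously expressing miR-21, were treated with titrations (up to about 40uM final) for 48 hours at 37 degree Celsius. Luciferase luminescence was read after lysis.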
# TDP1 inh – blocks human tyrosyl-DNA phosphodiesterase 1; recombinant TDP1, AlphaScreen DNA substrate cleavage; Potency, µM (highest dose often 130 µM), without a hit: top-dose activity change, negative = inhibition, hits mostly inhibitors; Q9NUW8; hit rate 0.28% among 350,000; also: potency is read from the fitted curve at half-maximal effect; % is scaled to controls: 0 for no effect and ±100 for the full control effect; nearly all actives have a fitted effect of over 40% in size
#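 Steps: enzyme plus compound, 15 min RT; add biotin/phosphotyrosine-FITC oligonucleotide (15 nM final), react 5 min; add donor/acceptor beads (10 ug/ml final), 10 min; read AlphaScreen. Tdp1 at 1 nM final.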
# DT40 TDP1 CPT – DT40-hTDP1 cell growth loss with CPT; chicken DT40 Tdp1-/-;hTDP1 cells + 20 nM CPT, ATP luminescence, 48 h; Potency, µM (highest dose often 46.2 µM), without a hit: at the top dose activity change, negative = growth inhibition, usual class: inhibitors; hit rate 12% among 420,000; also: potency is read from the fitted curve at half-maximal effect; % is scaled to controls: 0 for no effect and ±100 for the full control effect; nearly all actives have a fitted effect of over 55% in size
#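 Chicken DT40 Tdp1-/- cells complemented with human TDP1, 400 cells/well, exposed to compounds plus 20 nM camptothecin for at least 48 h at 37 C; viability read as ATP content by CellTiter-Glo luminescence.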
# The depositor's hits bear a star; ? = inconclusive; / = no result given. Hits are enriched below; roughly 16% of the tested compounds scored in any of these assays. Unless noted, calls follow the shape of the dose curve; as a rule, active = well fitted curve in the direction sought with a large enough effect; inconclusive = small, poorly fitted or top-dose-only effect, or another doubt; inactive = no such curve, though single readings can be large; an effect the other way counts as inactive or inconclusive.
# The first three entries, to show the layout:
canonical_smiles	uPA surface inh	DT40 TDP1 no CPT	miR-21 reporter	TDP1 inh	DT40 TDP1 CPT
CN(C)S(=O)(=O)c1cccc(NC(=S)NC2CCCCC2)c1	0.6%	-8.3%	-1.8%	-0.6%	-22.3%
CN(C)S(=O)(=O)c1cccc(NC(=S)NC(=O)C2CCCCC2)c1	-9.1%	18.4µM*	-23.8%	5.3%	?
CC1Cc2ccccc2N1C(=S)Nc1cccc(S(=O)(=O)N(C)C)c1 (stereo unspecified)	5.5%	?	1.9%	-1.2%	16.4µM*

# The listing, previewed entries included:
canonical_smiles	uPA surface inh	DT40 TDP1 no CPT	miR-21 reporter	TDP1 inh	DT40 TDP1 CPT
CN(C)S(=O)(=O)c1cccc(NC(=S)NC2CCCCC2)c1	0.6%	-8.3%	-1.8%	-0.6%	-22.3%
CN(C)S(=O)(=O)c1cccc(NC(=S)NC(=O)C2CCCCC2)c1	-9.1%	18.4µM*	-23.8%	5.3%	?
CC1Cc2ccccc2N1C(=S)Nc1cccc(S(=O)(=O)N(C)C)c1 (stereo unspecified)	5.5%	?	1.9%	-1.2%	16.4µM*
CC1CCCC(NC(=S)Nc2cccc(S(=O)(=O)N(C)C)c2)C1C (stereo unspecified)	-8.2%	18.4µM*	13.6%	2.6%	?
CCOc1cc(NC(=S)NCCCN2CCOCC2)c(OCC)cc1NC(=O)c1ccco1	1.1%	-0.5%	-2.9%	/	-4.3%
Cc1ccc(S(=O)(=O)N(C)C[C@@H]2Oc3ccc(NC(=O)CCC(F)(F)F)cc3CC(=O)N([C@@H](C)CO)C[C@@H]2C)cc1	?	5.8µM*	/	1.2%	4.11µM*
C[C@H](CO)N1C[C@H](C)[C@H](CN(C)S(=O)(=O)c2cn(C)cn2)Oc2ccc(NC(=O)Nc3ccc(C(F)(F)F)cc3)cc2CC1=O	30.6%	13µM*	/	0.6%	?
C[C@@H]1CN([C@@H](C)CO)C(=O)Cc2cc(NC(=O)Nc3ccc(C(F)(F)F)cc3)ccc2O[C@@H]1CN(C)S(=O)(=O)c1ccc(Cl)cc1	?	14.6µM*	/	1.2%	?
Cc1ccc(S(=O)(=O)N(C)C[C@@H]2Oc3ccc(NC(=O)Nc4cccc5ccccc45)cc3C(=O)N([C@H](C)CO)C[C@H]2C)cc1	7.1%	23.1µM*	/	0.9%	?
CCc1nnc(NC(=O)CSc2nc3c([nH]c4ccccc43)c(=O)n2CCOC)s1	1.7%	-22.7%	2.7%	-0.4%	-4.2%
O=C(COc1ccccc1Cl)NCCCNC(=O)c1ccccn1	2.6%	-1.2%	-1.5%	8.8%	-0.1%
C[C@H](CO)N1C[C@H](C)[C@@H](CN(C)S(=O)(=O)c2ccc(F)cc2)Oc2ccc(NC(=O)Nc3ccccc3)cc2C1=O	2.9%	14.6µM*	/	0.1%	?
C[C@@H]1CN([C@H](C)CO)C(=O)c2cc(NC(=O)Nc3ccc(C(F)(F)F)cc3)ccc2O[C@H]1CN(C)S(=O)(=O)c1ccc(Cl)cc1	?	5.8µM*	/	1.7%	5.17µM*
C[C@H](CO)N1C[C@H](C)[C@@H](CN(C)S(=O)(=O)c2ccc(F)cc2)Oc2c(NC(=O)Nc3ccc(C(F)(F)F)cc3)cccc2C1=O	?	?	/	2.1%	?
C[C@H](CO)N1C[C@H](C)[C@@H](CN(C)S(=O)(=O)c2ccc(F)cc2)Oc2ccc(NC(=O)Nc3ccc(C(F)(F)F)cc3)cc2C1=O	-22.8%	?	/	0.5%	?
C[C@H](CO)N1C[C@H](C)[C@@H](CN(C)S(=O)(=O)c2ccccc2)Oc2ccc(NC(=O)Nc3ccccc3)cc2C1=O	8.6%	?	/	2.9%	-90.7%
C[C@H]1CN([C@@H](C)CO)C(=O)c2cccc(NC(=O)Nc3ccc(C(F)(F)F)cc3)c2O[C@@H]1CN(C)S(=O)(=O)c1ccc(Cl)cc1	-4.6%	8.2µM*	/	2.9%	7.31µM*
COc1cc(C(=O)Nc2nc(OC)c(-c3ccccc3)c(OC)n2)cc(OC)c1OC	10.5%	18.4µM*	0.1%	4.2%	?
CCOC(=O)c1cc(-c2ccccc2)sc1NC(=S)Nc1cc(C)ccn1	4.2%	10.3µM*	1.1%	2.5%	?
CCOC(=O)c1cc(-c2ccccc2)sc1NC(=O)c1cc(OC)c(OC)c(OC)c1	-1.6%	18.4µM*	0.3%	1.1%	?
CC1=C(C(=O)N(C)C)CC(CC(=O)NCC2CCCCC2)C(=O)N1CCCN1CCCC1=O (stereo unspecified)	/	13.4%	/	/	7.5%
Cc1nn(Cc2ccc(Cl)c(Cl)c2)c(C)c1NC(=O)c1noc2c1CCc1ccccc1-2	/	5.8µM*	21.5%	0.9%	5.8µM*
